{
  "sequences": {"note": "Amino acid sequences for entries named in this document (tags omitted).", "UniProt O08914, whole entry": "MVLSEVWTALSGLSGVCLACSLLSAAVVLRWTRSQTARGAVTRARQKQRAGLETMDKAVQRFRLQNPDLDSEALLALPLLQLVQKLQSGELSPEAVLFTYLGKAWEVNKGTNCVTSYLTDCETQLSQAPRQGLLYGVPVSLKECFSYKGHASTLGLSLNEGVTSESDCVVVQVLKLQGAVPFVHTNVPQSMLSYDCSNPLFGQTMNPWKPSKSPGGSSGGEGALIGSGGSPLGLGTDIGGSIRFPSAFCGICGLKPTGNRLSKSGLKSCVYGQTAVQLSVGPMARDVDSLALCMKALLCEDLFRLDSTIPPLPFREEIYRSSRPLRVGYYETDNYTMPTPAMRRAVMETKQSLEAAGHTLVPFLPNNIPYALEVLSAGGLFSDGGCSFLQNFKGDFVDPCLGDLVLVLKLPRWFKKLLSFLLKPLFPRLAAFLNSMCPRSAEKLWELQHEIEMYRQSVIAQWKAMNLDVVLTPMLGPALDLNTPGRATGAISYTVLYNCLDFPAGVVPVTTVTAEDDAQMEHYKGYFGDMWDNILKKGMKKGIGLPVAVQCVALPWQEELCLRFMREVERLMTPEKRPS"},
  "source": "paper PMC7145423",
  "about": "“Cooperative enzymatic control of N-acyl amino acids by PM20D1 and FAAH” (eLife, 2020)",
  "biological_target": "FAAH (residual C20:4-Gly hydrolase of PM20D1-KO liver membranes) (Mus musculus, UniProt O08914)",
  "assay": "inhibition of C20:4-Gly hydrolysis, LC-MS of arachidonic acid",
  "settings": "100 µM C20:4-Gly, PBS, 1 hr 37°C, 10 min pre-incubation, serine hydrolase inhibitor, covalent",
  "data": [
    {"smiles": "CCCCC/C=C\\C/C=C\\C/C=C\\C/C=C\\CCCCP(=O)(F)OC", "note": "(stereo not shown)", "values": [
      {"measurement": "% inhibition at 10 μM", "value": "MAFP completely abolished the residual C20:4-Gly hydrolysis activity"}
    ]}
  ]
}
